Laboratory results published in patent US20260382616A1, “TREATMENT METHODS FOR SUBJECTS WITH NON-SMALL CELL LUNG CANCER HAVING AN ABERRATION IN EGFR” (published 2026).

The chains behind the UniProt entries cited, without tags or fusion partners. Residues count along the entry.
UniProt P00533, 25-1210 limits assumed: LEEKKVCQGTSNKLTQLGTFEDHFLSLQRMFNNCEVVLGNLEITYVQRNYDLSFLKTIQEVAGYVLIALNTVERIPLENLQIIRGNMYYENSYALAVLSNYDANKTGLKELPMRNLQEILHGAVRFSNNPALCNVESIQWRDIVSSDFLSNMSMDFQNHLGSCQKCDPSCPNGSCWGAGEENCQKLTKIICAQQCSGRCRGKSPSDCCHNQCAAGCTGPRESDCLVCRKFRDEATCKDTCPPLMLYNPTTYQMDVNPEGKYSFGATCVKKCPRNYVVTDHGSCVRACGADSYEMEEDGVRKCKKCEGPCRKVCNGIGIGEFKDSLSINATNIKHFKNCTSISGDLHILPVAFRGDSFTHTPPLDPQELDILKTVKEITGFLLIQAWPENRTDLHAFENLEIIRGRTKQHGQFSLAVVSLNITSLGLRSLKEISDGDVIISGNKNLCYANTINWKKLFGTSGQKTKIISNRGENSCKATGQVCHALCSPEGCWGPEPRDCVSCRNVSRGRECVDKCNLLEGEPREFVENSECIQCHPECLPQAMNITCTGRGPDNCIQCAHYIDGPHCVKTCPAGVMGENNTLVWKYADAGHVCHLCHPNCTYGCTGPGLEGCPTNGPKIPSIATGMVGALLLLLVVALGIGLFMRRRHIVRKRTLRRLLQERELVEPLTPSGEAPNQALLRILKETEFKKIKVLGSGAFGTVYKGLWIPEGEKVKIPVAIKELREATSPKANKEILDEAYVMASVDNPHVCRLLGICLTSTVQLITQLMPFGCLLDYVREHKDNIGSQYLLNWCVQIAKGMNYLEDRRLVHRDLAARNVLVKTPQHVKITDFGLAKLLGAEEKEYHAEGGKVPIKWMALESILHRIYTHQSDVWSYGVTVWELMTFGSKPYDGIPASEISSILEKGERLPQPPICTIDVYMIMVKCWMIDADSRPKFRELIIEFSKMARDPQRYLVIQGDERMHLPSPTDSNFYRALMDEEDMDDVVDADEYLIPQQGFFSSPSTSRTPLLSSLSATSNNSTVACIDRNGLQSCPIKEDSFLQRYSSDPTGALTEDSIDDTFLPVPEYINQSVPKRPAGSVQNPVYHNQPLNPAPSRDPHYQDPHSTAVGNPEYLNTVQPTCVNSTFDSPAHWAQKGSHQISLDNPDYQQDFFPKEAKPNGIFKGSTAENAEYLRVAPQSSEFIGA

Columns and labels:
[1] = Phase 1/2a study, pharmacokinetics (plasma); details: for AUCLST / AUCTAU / Cmax / T1/2: GM; for Tmax: median
[2] = system: NIH/3T3 EGFR H773_V774insNPH; assay: NIH/3T3 EGFR H773_V774insNPH allograft, TAS6417 and/or CBDCA/pemetrexed; details: for Tumor volume: mean
[3] = target: WT EGFR (Homo sapiens, UniProt P00533); assay: Cell-based inhibition of phosphorylation of WT EGFR; details: cell-based assay
[4] = system: EGFR ex20ins mutant NSCLC that progressed after prior amivantamab; assay: Phase 2b REZILIENT1 module C, antitumor activity; details: 100 mg BID
[5] = system: H1975insSVD; assay: H1975insSVD xenograft, TAS6417 and/or carboplatin; details: for Tumor volume: mean ± SE
[6] = system: skin tissue with WT EGFR; assay: Effect on skin tissue with WT EGFR; details: in vivo
[7] = multiple dose C1D15, 100 mg BID
[8] = multiple dose C1D15, 150 mg BID

In the case of `C=CC(=O)N[C@H]1C=C(C)c2c(-c3cnc4ccccc4c3)c3c(N)ncnc3n2C1`, the “Dose dependence of Cmax and AUC” value ([1]; 30-150 mg BID) is reported as “increased in a dose-related manner”, the Accumulation ([1]; after 14 days) is reported as “No notable accumulation” and the “Median time to Cmax (Tmax)” value ([1]; fasting, C1D1 or C1D15) is reported as 0.5 to 1.5 h. The AUCLST ([1]; first dose C1D1, 30 mg BID) was 4,030 ng·h/mL, the AUCTAU ([1]; first dose C1D1, 30 mg BID) was 5,538 ng·h/mL and the Cmax ([1]; first dose C1D1, 30 mg BID) was 969 ng/mL. The T1/2 ([1]; first dose C1D1, 30 mg BID) was 3.34 h, the Tmax ([1]; first dose C1D1, 30 mg BID) was 1.5 h and the AUCLST ([1]; first dose C1D1, 45 mg BID) was 10,151 ng·h/mL. The Cmax ([1]; first dose C1D1, 45 mg BID) was 2,697 Ng/mL, the T1/2 ([1]; first dose C1D1, 45 mg BID) was 4.18 h and the Tmax ([1]; first dose C1D1, 45 mg BID) was 1 h. The AUCLST ([1]; first dose C1D1, 65 mg BID) was 10,674 ng·h/mL, the AUCTAU ([1]; first dose C1D1, 65 mg BID) was 11,115 ng·h/mL and the Cmax ([1]; first dose C1D1, 65 mg BID) was 2,552 Ng/mL. For the same molecule, the T1/2 ([1]; first dose C1D1, 65 mg BID) was 4.02 h, the Tmax ([1]; first dose C1D1, 65 mg BID) was 1 h and the AUCLST ([1]; first dose C1D1, 100 mg BID) was 12,036 ng·h/mL. For the same molecule, the AUCTAU ([1]; first dose C1D1, 100 mg BID) was 13,674 ng·h/mL, the Cmax ([1]; first dose C1D1, 100 mg BID) was 3,330 Ng/mL and the T1/2 ([1]; first dose C1D1, 100 mg BID) was 3.67 h. For the same molecule, the Tmax ([1]; first dose C1D1, 100 mg BID) was 0.5 h, the AUCLST ([1]; first dose C1D1, 150 mg BID) was 20,581 ng·h/mL and the AUCTAU ([1]; first dose C1D1, 150 mg BID) was 23,713 ng·h/mL. The Cmax ([1]; first dose C1D1, 150 mg BID) was 4,788 Ng/mL, the T1/2 ([1]; first dose C1D1, 150 mg BID) was 3.34 h and the Tmax ([1]; first dose C1D1, 150 mg BID) was 1 h. The AUCLST ([1]; multiple dose C1D15, 30 mg BID) was 5,280 ng.h/mL, the AUCTAU ([1]; multiple dose C1D15, 30 mg BID) was 6,476 ng.h/mL and the Cmax ([1]; multiple dose C1D15, 30 mg BID) was 1,364 Ng/mL. The Tmax ([1]; multiple dose C1D15, 30 mg BID) was 1 h, the AUCLST ([1]; multiple dose C1D15, 45 mg BID) was 11,053 ng.h/mL and the AUCTAU ([1]; multiple dose C1D15, 45 mg BID) was 12,894 ng.h/mL. For the same molecule, the Cmax ([1]; multiple dose C1D15, 45 mg BID) was 3,089 Ng/mL, the T1/2 ([1]; multiple dose C1D15, 45 mg BID) was 4.29 h and the Tmax ([1]; multiple dose C1D15, 45 mg BID) was 1 h. The AUCLST ([1]; multiple dose C1D15, 65 mg BID) was 10,433 ng.h/mL, the AUCTAU ([1]; multiple dose C1D15, 65 mg BID) was 12,380 ng.h/mL and the Cmax ([1]; multiple dose C1D15, 65 mg BID) was 2,190 Ng/mL. For the same molecule, the T1/2 ([1]; multiple dose C1D15, 65 mg BID) was 4.28 h, the Tmax ([1]; multiple dose C1D15, 65 mg BID) was 2 h and the AUCLST [1, 7] was 13,861 ng.h/mL. The AUCTAU [1, 7] was 15,672 ng.h/mL, the Cmax [1, 7] was 3,827 Ng/mL and the T1/2 [1, 7] was 4.24 h. For the same molecule, the Tmax [1, 7] was 0.5 h, the AUCLST [1, 8] was 24,309 ng.h/mL and the AUCTAU [1, 8] was 28,326 ng.h/mL. The Cmax [1, 8] was 5,581 Ng/mL, the T1/2 [1, 8] was 3.89 h and the Tmax [1, 8] was 0.5 h. It also gave an Elimination half-life ([1]; repeat BID dosing for 14 days) of 3 to 4 h, a Tumor volume ([2]; Day 0, TAS6417 50 mg/kg/day p.o.) of 150.4 mm^3 and a Tumor volume ([2]; Day 0, TAS6417 100 mg/kg/day p.o.) of 154.5 mm^3. The Tumor volume ([2]; Day 8, TAS6417 50 mg/kg/day p.o.) was 265.0 mm^3, the Tumor volume ([2]; Day 8, TAS6417 100 mg/kg/day p.o.) was 199.5 mm^3 and the “Tumor volume after 8 days” value ([2]; alone or in combination with CBDCA/pemetrexed) was “dramatically smaller tumor volume after 8 days”. For the same molecule, the “Inhibition of WT EGFR” value [3] was “moderate inhibition”, the “Median PFS” value [4] was 9.7 months and the “Disease control rate (CR+PR+SD)” value ([4]; 30 evaluable patients) was 90%. The ORR ([4]; 30 evaluable patients) was 40%, the Tumor volume ([5]; Day 1, TAS6417 100 mg/kg/day po qd) was 201.8 ± 91. mm^3 and the Tumor volume ([5]; Day 1, TAS6417 200 mg/kg/day po qd) was 200.1 ± 8.8 mm^3. For the same molecule, the Tumor volume ([5]; Day 15, TAS6417 100 mg/kg/day po qd) was 409.5 ± 45.8 mm^3, the Tumor volume ([5]; Day 15, TAS6417 200 mg/kg/day po qd) was 131.4 ± 18.2 mm^3 and the “Tumor volume after 15 days” value ([5]; alone or in combination with carboplatin) was “dramatically smaller tumor volume after 15 days”. For the same molecule, the “Effect on skin tissue with WT EGFR” value [6] was “spares skin tissue with WT EGFR”.
